{
  "source": "patent US11881286B2",
  "about": "“CD8+ t cell based immunosuppressive tumor microenvironment detection method” (GENENTECH, INC., priority 2019, dated 2024)",
  "key": {"TOV112D": {"tested_on": "TOV112D", "experiment": "HLA-A expression (RPKM) after EZH2 inhibitor, TOV112D", "type": "cell-based, human", "conditions": "TOV112D (SMARCA4 mutation); 5 μM EZH2 inhibitor relative to control DMSO"}, "COV434": {"tested_on": "COV434", "experiment": "HLA-A expression (RPKM) after EZH2 inhibitor, COV434", "type": "cell-based, human", "conditions": "COV434 (SMARCA4 mutation); 5 μM EZH2 inhibitor relative to control DMSO"}},
  "data": [
    {"compound": "CCN(c1cc(-c2ccc(CN3CCOCC3)cc2)cc(C(=O)NCc2c(C)cc(C)[nH]c2=O)c1C)C1CCOCC1", "note": "[EZH-6438]", "values": [
      {"measurement": "HLA-A expression", "setting": "TOV112D", "value": "increased"},
      {"measurement": "HLA-A expression", "setting": "COV434", "value": "increased"}
    ]}
  ]
}
